These results are taken from US20220251194A1.

Chains of the proteins cited; added tags and fusions are not shown. Residues count along the entry.
UniProt Q15116, 25-167: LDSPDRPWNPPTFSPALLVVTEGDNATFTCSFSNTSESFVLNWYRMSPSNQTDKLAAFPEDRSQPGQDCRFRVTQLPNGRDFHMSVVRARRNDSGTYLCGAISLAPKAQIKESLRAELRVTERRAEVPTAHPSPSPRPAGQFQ

The target in this experiment is Human PD1 (50AFR), [VEGF leader]-Sino-Bio-PD-1_H-[His9G] (human) (UniProt Q15116). The experiment is described as follows: SPR (Biacore T200 or 4000), antibody captured via anti-human Fc, antigen as analyte. In general terms: In SPR one partner is held on a chip, and binding of the other changes the refractive index at the surface.

As to Keytruda (25ADU) (antibody), the dissociation constant Kd – broadly, the equilibrium constant for the complex coming apart – was 1.4 nM.
